Source: patent US20190195880A1, “METHODS AND KITS FOR PREDICTING THE SENSITIVITY OF A SUBJECT SUFFERING OF RENAL CANCER TO CANCER TREATMENT” (CENTRE NATIONAL DE LA RECHERCHE SCIENTIFIQUE (CNRS), priority 2016, published 2019)

Tested on: metastatic ccRCC
Conditions: patients with CXCL5 plasmatic levels above 0.1 ng/ml; p=0.04

## CCN(CC)CCNC(=O)c1c(C)[nH]c(/C=C2\C(=O)Nc3ccc(F)cc32)c1C [sunitinib]
  median PFS: 27 months
